Measurements taken from ChEMBL document CHEMBL3734746, “Monoamine oxidase inhibitory activities of heterocyclic chalcones” (Bioorg Med Chem Lett, 2015).

Species on record: Homo sapiens
Assay: Selectivity index, ratio of IC50 for human MAO-A to IC50 for human MAO-B

Ratio IC50: 4.6
Compound: O=C(/C=C/c1ccc(C(F)(F)F)cc1)c1ccc[nH]1
